{"source": "paper PMC3894222", "about": "“Serotonin Signaling in Schistosoma mansoni: A Serotonin–Activated G Protein-Coupled Receptor Controls Parasite Movement” (PLoS Pathogens, 2014)", "biological_target": "T1, Sm5HTR (Schistosoma mansoni, UniProt G4V5G4)", "T1 construct": "gene 5HT-1; full length, 463 residues, 52 kDa; pCI-neo; transiently transfected HEK 293 cells", "T1 sequence (G4V5G4 1-463)": "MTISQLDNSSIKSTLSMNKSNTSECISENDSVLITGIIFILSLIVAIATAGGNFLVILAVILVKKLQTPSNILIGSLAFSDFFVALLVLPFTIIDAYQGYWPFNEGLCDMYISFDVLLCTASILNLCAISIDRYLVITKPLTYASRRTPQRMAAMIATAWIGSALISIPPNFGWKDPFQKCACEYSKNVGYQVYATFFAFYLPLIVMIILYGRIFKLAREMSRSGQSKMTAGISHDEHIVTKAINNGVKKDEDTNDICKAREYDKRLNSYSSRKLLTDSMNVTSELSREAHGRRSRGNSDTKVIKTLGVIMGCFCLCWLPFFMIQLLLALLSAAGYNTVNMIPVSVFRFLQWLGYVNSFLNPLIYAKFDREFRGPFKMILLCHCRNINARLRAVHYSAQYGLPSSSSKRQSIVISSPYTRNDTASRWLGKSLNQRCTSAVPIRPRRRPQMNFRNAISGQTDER", "assay": "cAMP fluorescent competitive immunoassay, transfected HEK […] cells", "format": "cell-based", "data": [{"smiles": "NCCc1c[nH]c2ccc(O)cc12", "note": "[5HT, serotonin]", "values": [{"measurement": "EC50", "result": 61.7, "unit": "nM"}]}]}
